Membrane permeability of cyclic peptides

Values of Kelly et al. 2021, doi:10.1021/jacs.0c06115, as listed in CycPeptMPDB.

PAMPA measures passive passage through an artificial lipid membrane. P is given in units of 10^-6 cm/s (from log10 values with two decimals); larger means faster passage.

The entry for CC(=O)N1CCC[C@H]1C(=O)N(C)[C@H](CC(C)C)C(=O)N[C@@H]1C(=O)N[C@H](CC(C)C)C(=O)N[C@@H](Cc2ccccc2)C(=O)N[C@H](Cc2ccc(F)c(F)c2)C(=O)N(C)[C@H](C)C(=O)N[C@@H](CC(C)C)C(=O)N2CCC[C@H]2C(=O)O[C@@H]1C lists PAMPA 2.6 × 10^-6 cm/s.
The entry for CC(=O)N1CCC[C@H]1C(=O)N[C@@H]1C(=O)N(C)[C@H](CC(C)C)C(=O)N[C@@H](CC(C)C)C(=O)N(C)[C@@H](CC(C)C)C(=O)N(C)[C@H](CC(C)C)C(=O)N(C)[C@@H](C)C(=O)N[C@@H](CC(C)C)C(=O)N2CCC[C@@H]2C(=O)O[C@@H]1C lists PAMPA 2 × 10^-6 cm/s.
The entry for CC[C@@H]1NC(=O)[C@@H](CC2CCCCC2)NC(=O)[C@@H](NC(=O)[C@@H](CC(C)C)N(C)C(=O)[C@@H]2CCCN2C(C)=O)[C@@H](C)OC(=O)[C@@H]2CCCN2C(=O)[C@H](CC(C)C)NC(=O)[C@@H](C)N(C)C(=O)[C@@H](Cc2ccccc2)NC1=O lists PAMPA 6 × 10^-6 cm/s.
The entry for CC(=O)N1CCC[C@H]1C(=O)N(C)[C@H](CC(C)C)C(=O)N[C@@H]1C(=O)N[C@H](Cc2ccc(F)c(F)c2)C(=O)N[C@@H](CC(C)C)C(=O)N[C@H](Cc2ccccc2)C(=O)N(C)[C@H](C)C(=O)N[C@@H](CC(C)C)C(=O)N2CCC[C@H]2C(=O)O[C@@H]1C lists PAMPA 3 × 10^-6 cm/s.
The entry for CC[C@H]1NC(=O)[C@@H](NC(=O)[C@@H](CC(C)C)N(C)C(=O)[C@@H]2CCCN2C(C)=O)[C@@H](C)OC(=O)[C@@H]2CCCN2C(=O)[C@H](CC(C)C)NC(=O)[C@@H](C)N(C)C(=O)[C@@H](Cc2cccc3ccccc23)NC(=O)[C@H](CC(C)C)NC1=O lists PAMPA 2.3 × 10^-6 cm/s.
The entry for CC(=O)N1CCC[C@H]1C(=O)N(C)[C@H](CC(C)C)C(=O)N[C@@H]1C(=O)N[C@H](CC(C)C)C(=O)N[C@@H](CC(C)C)C(=O)N[C@H](Cc2cccc3ccccc23)C(=O)N(C)[C@H](C)C(=O)N[C@@H](CC(C)C)C(=O)N2CCC[C@H]2C(=O)O[C@@H]1C lists PAMPA 1.3 × 10^-6 cm/s.
The entry for CC(=O)N1CCC[C@H]1C(=O)N[C@@H]1C(=O)N(C)[C@H](CC(C)C)C(=O)N(C)[C@H](CC(C)C)C(=O)N[C@H](CC(C)C)C(=O)N[C@@H](CC(C)C)C(=O)N(C)[C@H](C)C(=O)N[C@@H](CC(C)C)C(=O)N2CCC[C@@H]2C(=O)O[C@@H]1C lists PAMPA 2.1 × 10^-6 cm/s.
The entry for CCC[C@H]1NC(=O)[C@@H](NC(=O)[C@@H](CC(C)C)N(C)C(=O)[C@@H]2CCCN2C(C)=O)[C@@H](C)OC(=O)[C@@H]2CCCN2C(=O)[C@H](CC(C)C)NC(=O)[C@@H](C)N(C)C(=O)[C@@H](CCC)NC(=O)[C@H](CC(C)C)NC1=O lists PAMPA 1.2 × 10^-6 cm/s.
The entry for CC(=O)N1CCC[C@H]1C(=O)N[C@@H]1C(=O)N[C@H](CC(C)C)C(=O)N(C)[C@H](CC(C)C)C(=O)N[C@H](CC(C)C)C(=O)N[C@@H](CC(C)C)C(=O)N[C@H](C)C(=O)N[C@@H](CC(C)C)C(=O)N2CCC[C@@H]2C(=O)O[C@@H]1C lists PAMPA 0.74 × 10^-6 cm/s.
The entry for CC(=O)N1CCC[C@H]1C(=O)N[C@@H]1C(=O)N(C)[C@H](CC(C)C)C(=O)N[C@@H](CC(C)C)C(=O)N(C)[C@@H](CC(C)C)C(=O)N(C)[C@H](CC(C)C)C(=O)N(C)[C@H](C)C(=O)N[C@@H](CC(C)C)C(=O)N2CCC[C@@H]2C(=O)O[C@@H]1C lists PAMPA 1.3 × 10^-6 cm/s.
The entry for CCC[C@H]1NC(=O)[C@@H](NC(=O)[C@@H](CC(C)C)N(C)C(=O)[C@@H]2CCCN2C(C)=O)[C@@H](C)OC(=O)[C@@H]2CCCN2C(=O)[C@H](CC(C)C)NC(=O)[C@@H](C)N(C)C(=O)[C@@H](Cc2ccccc2)NC(=O)[C@H](CC(C)C)NC1=O lists PAMPA 3.5 × 10^-6 cm/s.
The entry for CC(=O)N1CCC[C@H]1C(=O)N(C)[C@H](CC(C)C)C(=O)N[C@@H]1C(=O)N[C@H](Cc2ccc(F)c(F)c2)C(=O)N[C@@H](Cc2ccccc2)C(=O)N[C@H](Cc2cccc3ccccc23)C(=O)N(C)[C@H](C)C(=O)N[C@@H](CC(C)C)C(=O)N2CCC[C@H]2C(=O)O[C@@H]1C lists PAMPA 0.14 × 10^-6 cm/s.
The entry for CC[C@H]1NC(=O)[C@@H](NC(=O)[C@@H](CC(C)C)N(C)C(=O)[C@@H]2CCCN2C(C)=O)[C@@H](C)OC(=O)[C@@H]2CCCN2C(=O)[C@H](CC(C)C)NC(=O)[C@@H](C)N(C)C(=O)[C@@H](CC2CCCCC2)NC(=O)[C@H](CC(C)C)NC1=O lists PAMPA 0.66 × 10^-6 cm/s.
The entry for CC(=O)N1CCC[C@H]1C(=O)N[C@@H]1C(=O)N[C@H](CC(C)C)C(=O)N(C)[C@H](CC(C)C)C(=O)N[C@@H](CC(C)C)C(=O)N[C@@H](CC(C)C)C(=O)N[C@H](C)C(=O)N[C@@H](CC(C)C)C(=O)N2CCC[C@@H]2C(=O)O[C@@H]1C lists PAMPA 0.52 × 10^-6 cm/s.
The entry for CC(=O)N1CCC[C@H]1C(=O)N(C)[C@H](CC(C)C)C(=O)N[C@@H]1C(=O)N[C@H](Cc2ccc(F)cc2)C(=O)N[C@@H](CC(C)C)C(=O)N[C@H](CC(C)C)C(=O)N(C)[C@H](C)C(=O)N[C@@H](CC(C)C)C(=O)N2CCC[C@H]2C(=O)O[C@@H]1C lists PAMPA 2.5 × 10^-6 cm/s.
The entry for CC(=O)N1CCC[C@H]1C(=O)N[C@@H]1C(=O)N(C)[C@H](CC(C)C)C(=O)N(C)[C@H](CC(C)C)C(=O)N[C@H](CC(C)C)C(=O)N[C@H](CC(C)C)C(=O)N(C)[C@H](C)C(=O)N[C@@H](CC(C)C)C(=O)N2CCC[C@@H]2C(=O)O[C@@H]1C lists PAMPA 5.4 × 10^-6 cm/s.
The entry for CC(=O)N1CCC[C@H]1C(=O)N(C)[C@H](CC(C)C)C(=O)N[C@@H]1C(=O)N[C@H](CC2CCCCC2)C(=O)N[C@@H](Cc2ccccc2)C(=O)N[C@H](Cc2ccc(F)c(F)c2)C(=O)N(C)[C@H](C)C(=O)N[C@@H](CC(C)C)C(=O)N2CCC[C@H]2C(=O)O[C@@H]1C lists PAMPA 6.3 × 10^-6 cm/s.
The entry for CC(=O)N1CCC[C@H]1C(=O)N(C)[C@H](CC(C)C)C(=O)N[C@@H]1C(=O)N[C@H](CC(C)C)C(=O)N[C@@H](Cc2ccccc2)C(=O)N[C@H](CC2CCCCC2)C(=O)N(C)[C@H](C)C(=O)N[C@@H](CC(C)C)C(=O)N2CCC[C@H]2C(=O)O[C@@H]1C lists PAMPA 7.1 × 10^-6 cm/s.
The entry for CC(=O)N1CCC[C@H]1C(=O)N[C@@H]1C(=O)N(C)[C@H](CC(C)C)C(=O)N(C)[C@@H](CC(C)C)C(=O)N(C)[C@@H](CC(C)C)C(=O)N(C)[C@@H](CC(C)C)C(=O)N[C@@H](C)C(=O)N[C@@H](CC(C)C)C(=O)N2CCC[C@@H]2C(=O)O[C@@H]1C lists PAMPA 6.3 × 10^-6 cm/s.
The entry for CC(=O)N1CCC[C@H]1C(=O)N[C@@H]1C(=O)N(C)[C@H](CC(C)C)C(=O)N(C)[C@@H](CC(C)C)C(=O)N(C)[C@H](CC(C)C)C(=O)N[C@@H](CC(C)C)C(=O)N[C@H](C)C(=O)N[C@@H](CC(C)C)C(=O)N2CCC[C@@H]2C(=O)O[C@@H]1C lists PAMPA 5.9 × 10^-6 cm/s.

Excerpt, the opening 2 entries:

For CC(=O)N1CCC[C@H]1C(=O)N(C)[C@H](CC(C)C)C(=O)N[C@@H]1C(=O)N[C@H](CC(C)C)C(=O)N[C@@H](Cc2ccccc2)C(=O)N[C@H](Cc2ccc(F)c(F)c2)C(=O)N(C)[C@H](C)C(=O)N[C@@H](CC(C)C)C(=O)N2CCC[C@H]2C(=O)O[C@@H]1C the data give PAMPA 2.6 × 10^-6 cm/s.
For CC(=O)N1CCC[C@H]1C(=O)N[C@@H]1C(=O)N(C)[C@H](CC(C)C)C(=O)N[C@@H](CC(C)C)C(=O)N(C)[C@@H](CC(C)C)C(=O)N(C)[C@H](CC(C)C)C(=O)N(C)[C@@H](C)C(=O)N[C@@H](CC(C)C)C(=O)N2CCC[C@@H]2C(=O)O[C@@H]1C the data give PAMPA 2 × 10^-6 cm/s.

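Conditions beyond the assay type are not listed; see the original paper. The list need not hold all peptides of the study. Entries at the database's floor value (log10 P of -10) are not listed.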